Our source for the Kd values is PMC5639367, “Structure‐Guided Design of Peptides as Tools to Probe the Protein–Protein Interaction between Cullin‐2 and Elongin BC Substrate Adaptor in Cullin RING E3 Ubiquitin Ligases” (Chemmedchem, 2017).

By UniProt entry, the sequences of proteins in these tests, tags left out. Residues count along the entry.
UniProt P40337, 54-213 partner limits assumed: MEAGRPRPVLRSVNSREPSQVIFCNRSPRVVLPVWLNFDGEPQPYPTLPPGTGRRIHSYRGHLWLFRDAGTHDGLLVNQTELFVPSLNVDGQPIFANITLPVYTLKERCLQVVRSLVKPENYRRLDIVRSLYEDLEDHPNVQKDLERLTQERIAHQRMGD
UniProt Q15370, 1-104 partner limits assumed: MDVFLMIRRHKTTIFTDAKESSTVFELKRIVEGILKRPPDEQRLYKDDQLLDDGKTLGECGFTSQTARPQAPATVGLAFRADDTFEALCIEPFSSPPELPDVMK

Where two headings read alike, the source gives them in different places.

Experiment [1] concerns the target T1, VBC (Homo sapiens, UniProt P40337+Q15369+Q15370).
T1 construct: made in house; host or cells: E. coli BL21(DE3)
Kind of experiment: Biolayer interferometry (BLI) binding of peptides to immobilised VBC. The note with it: Figure 2A, N-terminal Cul2 peptides and alanine scan of the 8-mer, biotinylated VBC on Super Streptavidin biosensor, peptides 27 µM to 7 mM, 20 mM HEPES pH 7.6, 100 mM NaCl, 1 mM DTT, 0.02% Tween-20, 25 °C, 1:1 model. On the procedure:
Biolayer interferometry: BLI experiments were performed in an Octet RED384 (FòrteBio). Biotinylated VBC (25 μg mL^−1) was immobilized on Super Streptavidin‐coated biosensor (FòrteBio). The experiments were conducted at 25 °C, in 20 mM HEPES pH 7.6, 100 mM NaCl, 1 mM DTT and 0.02 % (v/v) Tween‐20 buffer. The response of the reference tips was subtracted from the signal to account for unspecific binding. The data points were fitted using a 1:1 model. […]
peptides. Biotinylated VBC was immobilised on the tips and the peptides were tested in a concentration range from 27 µM to 7 mM. The different colours represent the different concentrations and corresponding responses. The assay was performed […]
Figure S2 – Biolayer interferomery experiments with the alanine scan peptides.
Biotinylated VBC was immobilised on the tips and the peptides were tested in a concentration range from 27 µM to 7 mM. The different colours represent the different concentrations and corresponding responses. The assay was performed in […]
leucine replacement versus VBC tested on a concentration-dependent assay. […]

In experiment [2] the target is T1, VBC. Conditions: read-out: K d between VBC and Cul2; cited from earlier work. An excerpt: Our work focused on probing a particular protein–protein interaction (PPI) in the CRL2^VHL ligase. […] We were interested in an epitope of the PPI between Cul2 and the receptor‐adaptor trimeric subunit composed by pVHL, EloB and EloC (VBC). This PPI has been described as comprising three main p ...

At VBC [1], `CSCC[C@H](N)C(=O)N[C@@H](CO)C(=O)N[C@@H](CC(C)C)C(=O)N[C@@H](CCCCN)C(=O)N1CCC[C@H]1C(=O)N[C@@H](CCCNC(=N)N)C(=O)N[C@H](C(=O)N[C@H](C(=O)N[C@@H](CC(=O)O)C(=O)N[C@@H](Cc1ccccc1)C(N)=O)C(C)C)C(C)C` gave a Kd of 4000 ± 300 µM.
“Cul2: Cullin‐2 scaffold protein of the CRL2^VHL ligase, native partner of VBC”: the Kd in the experiment with VBC [2] was 0.042 µM.
